Data on one substance can be found in patent EP0998480B1, “NUCLEOTIDE ANALOG COMPOSITION AND SYNTHESIS METHOD” (GILEAD SCIENCES, INC., priority 1997, dated 1999).

Where two headings read alike, the source gives them in different places.

A word on the solubility: it is the concentration that dissolves in the medium under given conditions. Higher therefore signals a readily soluble substance. As for “9-[2-(R)-[[Bis[[(isopropoxycarbonyl)oxy]methoxy]phosphinoyl]methoxy]propyl]adenine• fumaric acid [BPPF]”, the solubility runs as follows: (0.1 n hcl) 15 to 100 mg/mL; (acetone) 15 to 100 mg/mL; (acetonitrile) 3 to 15 mg/mL; (deionized water, pH 3.3) 3 to 15 mg/mL; (dimethylformamide) 428 mg/mL; (ethanol) 15 to 100 mg/mL. In addition, the solubility runs as follows: (isopropanol) 15 to 100 mg/mL; (isopropyl acetate) 3 to 15 mg/mL; (isopropyl acetate:water (1:1 v/v)) 15 to 100 mg/mL; (methanol) 15 to 100 mg/mL.
